Assay [1] is described as follows: qHTS Assay for Lipid Storage Modulators (AID 1519; calls by dose curve; as to activity change, negative = inhibition: % is scaled to controls: 0 for no effect and ±100 for the full control effect). The note with it: Drosophila S3 cells, BODIPY lipid droplet/cell ratio, laser cytometry, cells loaded with oleic acid; for activity change, negative = inhibition: at 57.5 µM (top of the series). In outline:
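Cells seeded at 5,000 per well were treated with compounds over a concentration series and loaded with oleic acid (400 uM, as added). Lipid droplet fluorescence (488 nm excitation, 500-530 nm channel) was read by laser-scanning cytometry and normalized to 20 uM Triacsin C.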

Sequences of proteins named here, by UniProt entry; tags and fusion partners are left off. A change or cut given only in a name is not applied to a line headed by its entry.
UniProt Q9HAZ1: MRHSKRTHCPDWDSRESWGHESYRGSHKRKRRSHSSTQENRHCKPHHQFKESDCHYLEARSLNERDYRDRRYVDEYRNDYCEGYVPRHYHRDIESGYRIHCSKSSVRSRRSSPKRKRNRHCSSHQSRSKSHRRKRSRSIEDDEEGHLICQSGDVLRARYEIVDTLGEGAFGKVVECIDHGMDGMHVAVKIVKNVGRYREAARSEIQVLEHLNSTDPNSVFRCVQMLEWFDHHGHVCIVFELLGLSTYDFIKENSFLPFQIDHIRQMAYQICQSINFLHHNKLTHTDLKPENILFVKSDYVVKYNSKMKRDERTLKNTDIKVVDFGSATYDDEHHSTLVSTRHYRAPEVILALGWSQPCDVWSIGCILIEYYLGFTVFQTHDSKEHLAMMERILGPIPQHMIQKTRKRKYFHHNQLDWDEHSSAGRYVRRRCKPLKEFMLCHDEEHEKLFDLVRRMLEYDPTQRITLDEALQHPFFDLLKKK
UniProt P02791: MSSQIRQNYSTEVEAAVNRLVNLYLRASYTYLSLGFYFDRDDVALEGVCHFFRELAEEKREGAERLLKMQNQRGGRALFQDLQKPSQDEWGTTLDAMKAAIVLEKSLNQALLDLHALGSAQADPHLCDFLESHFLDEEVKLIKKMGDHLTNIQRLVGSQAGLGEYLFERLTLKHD
UniProt P27695, whole entry, looked up: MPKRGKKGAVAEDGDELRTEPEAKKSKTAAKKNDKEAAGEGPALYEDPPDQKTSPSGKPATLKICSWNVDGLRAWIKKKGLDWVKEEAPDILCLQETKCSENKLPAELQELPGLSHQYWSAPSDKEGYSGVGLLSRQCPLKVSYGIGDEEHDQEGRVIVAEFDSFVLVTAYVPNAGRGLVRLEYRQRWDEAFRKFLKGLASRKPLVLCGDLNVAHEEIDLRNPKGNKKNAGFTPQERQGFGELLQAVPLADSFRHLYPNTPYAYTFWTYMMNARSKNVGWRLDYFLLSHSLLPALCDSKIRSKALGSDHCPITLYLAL
UniProt Q99549: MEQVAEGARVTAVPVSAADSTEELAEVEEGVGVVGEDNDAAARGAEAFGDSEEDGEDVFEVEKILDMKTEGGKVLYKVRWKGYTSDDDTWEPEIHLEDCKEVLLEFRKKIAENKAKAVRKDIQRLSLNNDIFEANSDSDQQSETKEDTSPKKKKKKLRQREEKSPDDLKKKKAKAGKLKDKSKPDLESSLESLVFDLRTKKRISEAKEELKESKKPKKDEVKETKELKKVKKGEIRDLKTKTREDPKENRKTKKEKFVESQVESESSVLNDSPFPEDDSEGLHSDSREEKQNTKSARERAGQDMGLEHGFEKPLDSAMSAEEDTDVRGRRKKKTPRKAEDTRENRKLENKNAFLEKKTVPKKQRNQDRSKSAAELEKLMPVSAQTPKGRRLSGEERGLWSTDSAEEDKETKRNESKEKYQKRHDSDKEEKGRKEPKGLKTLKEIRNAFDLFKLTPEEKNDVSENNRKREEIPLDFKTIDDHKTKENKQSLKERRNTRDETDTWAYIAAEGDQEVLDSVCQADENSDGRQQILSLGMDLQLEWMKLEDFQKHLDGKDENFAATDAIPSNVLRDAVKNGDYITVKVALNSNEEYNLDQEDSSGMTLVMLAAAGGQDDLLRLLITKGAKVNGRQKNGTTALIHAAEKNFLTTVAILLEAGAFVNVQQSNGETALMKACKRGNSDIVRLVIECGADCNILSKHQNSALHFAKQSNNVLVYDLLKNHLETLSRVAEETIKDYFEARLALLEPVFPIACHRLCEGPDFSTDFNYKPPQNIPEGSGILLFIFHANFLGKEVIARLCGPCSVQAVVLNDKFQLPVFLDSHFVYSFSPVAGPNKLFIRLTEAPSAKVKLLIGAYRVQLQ
UniProt O94782: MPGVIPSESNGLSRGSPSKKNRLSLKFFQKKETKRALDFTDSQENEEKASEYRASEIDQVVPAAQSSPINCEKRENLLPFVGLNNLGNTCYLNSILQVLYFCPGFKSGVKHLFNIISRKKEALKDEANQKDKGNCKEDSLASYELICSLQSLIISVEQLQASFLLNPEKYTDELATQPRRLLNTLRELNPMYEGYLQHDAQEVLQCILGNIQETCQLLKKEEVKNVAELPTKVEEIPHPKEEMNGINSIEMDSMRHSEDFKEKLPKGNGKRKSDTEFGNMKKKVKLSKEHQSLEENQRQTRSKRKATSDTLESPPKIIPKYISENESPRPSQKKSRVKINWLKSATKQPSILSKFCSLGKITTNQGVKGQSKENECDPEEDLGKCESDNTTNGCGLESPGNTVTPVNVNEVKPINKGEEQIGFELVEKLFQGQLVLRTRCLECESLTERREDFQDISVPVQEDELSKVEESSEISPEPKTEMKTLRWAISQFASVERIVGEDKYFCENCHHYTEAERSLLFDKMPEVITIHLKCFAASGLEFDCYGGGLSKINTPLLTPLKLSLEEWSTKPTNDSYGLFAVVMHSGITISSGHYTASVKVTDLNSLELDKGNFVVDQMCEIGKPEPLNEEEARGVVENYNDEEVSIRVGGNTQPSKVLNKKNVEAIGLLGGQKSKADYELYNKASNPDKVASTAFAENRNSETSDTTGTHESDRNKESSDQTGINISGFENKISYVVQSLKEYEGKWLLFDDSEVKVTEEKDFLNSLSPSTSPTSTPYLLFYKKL
UniProt Q03431: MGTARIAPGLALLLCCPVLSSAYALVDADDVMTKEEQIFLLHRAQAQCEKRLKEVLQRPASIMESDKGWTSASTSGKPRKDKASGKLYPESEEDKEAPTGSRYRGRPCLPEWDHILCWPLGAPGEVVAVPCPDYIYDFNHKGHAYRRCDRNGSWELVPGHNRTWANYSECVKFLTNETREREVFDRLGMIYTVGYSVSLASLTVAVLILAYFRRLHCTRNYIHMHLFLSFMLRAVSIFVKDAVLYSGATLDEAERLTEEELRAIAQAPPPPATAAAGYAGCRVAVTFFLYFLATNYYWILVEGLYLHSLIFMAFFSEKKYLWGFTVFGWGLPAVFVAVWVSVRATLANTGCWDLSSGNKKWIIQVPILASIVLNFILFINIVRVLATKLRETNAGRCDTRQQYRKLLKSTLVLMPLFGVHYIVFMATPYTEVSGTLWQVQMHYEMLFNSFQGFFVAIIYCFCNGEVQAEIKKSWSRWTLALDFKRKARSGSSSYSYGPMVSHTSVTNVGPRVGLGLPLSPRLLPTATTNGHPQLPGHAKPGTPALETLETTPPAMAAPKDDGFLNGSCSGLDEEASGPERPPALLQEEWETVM
UniProt P10635, whole entry, looked up: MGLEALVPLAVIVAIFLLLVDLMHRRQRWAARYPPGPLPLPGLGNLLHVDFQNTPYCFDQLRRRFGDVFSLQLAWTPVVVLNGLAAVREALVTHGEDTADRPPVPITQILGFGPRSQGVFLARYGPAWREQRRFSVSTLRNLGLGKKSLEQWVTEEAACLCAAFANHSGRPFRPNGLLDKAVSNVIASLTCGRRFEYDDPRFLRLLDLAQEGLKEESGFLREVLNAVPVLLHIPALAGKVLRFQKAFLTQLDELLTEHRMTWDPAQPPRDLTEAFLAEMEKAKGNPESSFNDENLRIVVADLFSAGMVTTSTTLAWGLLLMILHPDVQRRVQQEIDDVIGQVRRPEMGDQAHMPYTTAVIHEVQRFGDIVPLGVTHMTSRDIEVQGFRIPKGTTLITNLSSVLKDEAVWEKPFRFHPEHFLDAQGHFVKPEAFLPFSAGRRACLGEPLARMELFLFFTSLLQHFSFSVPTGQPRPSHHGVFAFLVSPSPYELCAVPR
UniProt P11712, whole entry, looked up: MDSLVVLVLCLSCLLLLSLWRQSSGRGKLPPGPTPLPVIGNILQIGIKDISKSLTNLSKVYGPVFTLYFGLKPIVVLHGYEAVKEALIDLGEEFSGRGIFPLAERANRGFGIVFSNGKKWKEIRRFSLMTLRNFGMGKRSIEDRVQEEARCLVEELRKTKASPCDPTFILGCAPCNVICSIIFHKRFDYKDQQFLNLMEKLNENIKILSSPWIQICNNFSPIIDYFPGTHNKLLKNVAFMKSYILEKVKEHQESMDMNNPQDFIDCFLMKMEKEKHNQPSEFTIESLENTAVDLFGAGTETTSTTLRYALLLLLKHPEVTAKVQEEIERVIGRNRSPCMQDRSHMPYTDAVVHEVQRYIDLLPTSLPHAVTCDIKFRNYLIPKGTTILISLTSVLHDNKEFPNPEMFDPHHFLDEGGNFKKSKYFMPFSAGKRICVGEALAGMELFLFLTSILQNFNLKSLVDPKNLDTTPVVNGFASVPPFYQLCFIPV
UniProt P33261, whole entry, looked up: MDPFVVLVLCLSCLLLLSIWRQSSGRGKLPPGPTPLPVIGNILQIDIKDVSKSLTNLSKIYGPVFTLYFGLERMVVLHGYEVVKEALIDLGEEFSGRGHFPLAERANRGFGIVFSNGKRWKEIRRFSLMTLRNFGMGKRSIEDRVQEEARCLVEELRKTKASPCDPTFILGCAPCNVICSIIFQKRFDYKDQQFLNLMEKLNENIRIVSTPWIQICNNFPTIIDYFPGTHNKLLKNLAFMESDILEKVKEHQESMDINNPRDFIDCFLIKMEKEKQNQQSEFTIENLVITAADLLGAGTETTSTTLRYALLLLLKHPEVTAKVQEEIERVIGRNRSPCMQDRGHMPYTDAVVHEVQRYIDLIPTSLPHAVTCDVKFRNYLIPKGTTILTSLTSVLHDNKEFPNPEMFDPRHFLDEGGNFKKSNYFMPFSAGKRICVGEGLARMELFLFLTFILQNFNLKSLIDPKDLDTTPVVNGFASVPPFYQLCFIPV

The nature of assay [2]: qHTS for differential inhibitors of proliferation of Plasmodium falciparum line D10 (AID 1877).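 Also: parasites grown with compound for 72 h before DNA staining; plate controls were vehicle wells for no effect and reference inhibitor wells for full effect.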 The note with it: at 28.7 µM (top of the series). (In qHTS, concentration-response curves come from the screen itself.)
The nature of assay [3]: qHTS Assay for Identifying Gametocytocidal Compounds (AID 743244).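 Also: % is scaled to controls: 0 for no effect and ±100 for the full control effect; actives lower the fluorescent signal which means gametocytes are killed.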 To be noted: P. falciparum 3D7 stage III-V gametocytes, alamarBlue, 72 h; stronger effect = lower value. The procedure, abridged: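 P. falciparum 3D7 stage III–V gametocytes (20,000 cells/well) were exposed to compounds for 72 h at 37 °C, 5% CO2. AlamarBlue was then added for 24 h; decreased resorufin fluorescence (Ex 525/Em 598 nm) indicated loss of viability.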

For assay [4], the target named is Dual specificity protein kinase CLK4 (Homo sapiens) (UniProt Q9HAZ1). The assay is described as follows: qHTS Assay for Inhibitors of CDC-like Kinase 4 (Kinase-Glo Assay) (AID 1770). Also: potency is read from the fitted curve at half-maximal effect; nearly all actives have a fitted effect of over 65% in size. The note with it: recombinant Clk4, Kinase-Glo ATP depletion luminescence. In outline: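 Readout: Kinase-Glo luminescence from ATP left after a 4.5 h room-temperature reaction of 25 nM Clk4 with 100 uM RS peptide and 1 uM ATP (final). Buffer: 25 mM Tris pH 7.5, 10 mM MgCl2.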

Assay [5] shares this target. In words: qHTS Assay for Inhibitors of CDC-like Kinase 4 (ADP-Glo Assay) (AID 1771). Also: potency is read from the fitted curve at half-maximal effect; nearly all actives have a fitted effect of over 70% in size. To be noted: recombinant CLK4, ADP-Glo luminescence. In outline: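 25 nM Clk4 with 100 uM RS repeat peptide and 1 uM ATP (final) in buffer with 2 mM MgCl2, 0.5 mM EGTA, 2.5 mM DTT, 0.01% Triton X-100; 1 h at room temperature; ADP-Glo luminescence for ADP formed.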
In assay [6] the target is Ferritin light chain (Equus caballus) (UniProt P02791). The assay is described as follows: qHTS Validation Assay for Identification of Novel General Anesthetics (AID 2323). Also: % is scaled to controls: 0 for no effect and ±100 for the full control effect. The note with it: horse apoferritin, anesthetic-site fluorescent probe displacement; at 76.9 µM (top of the series). The procedure, abridged:
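10 uM horse-spleen apoferritin + 1-AMA (50% saturated, PBS); cpd pin-transferred, 10 min RT. Ex 380/Em 535 nm endpoint. Activity normalized between free 1-AMA and 1-AMA/apoferritin; 4-parameter Hill fit of concentration-response.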

In assay [7] the target is DNA repair nuclease/redox regulator APEX1 (Homo sapiens) (UniProt P27695). In words: Confirmation qHTS Assay for Inhibitors of the Human Apurinic/apyrimidinic Endonuclease 1 (APE1) (AID 2572).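 Also: fluorescence gain from purified APE1 cutting a TAMRA/BHQ-2 THF abasic duplex; % is scaled to controls: 0 for no effect and ±100 for the full control effect; nearly all actives have a fitted effect of over 30% in size.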 To be noted: purified APE1, fluorogenic abasic-site DNA cleavage; at 57.1 µM (top of the series). The procedure, abridged:
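Enzyme and test compound were incubated for 15 min at room temperature, after which a 50 nM (final) double-stranded abasic-site substrate bearing 5'-TAMRA and 3'-BHQ-2 was added. Incision was followed as fluorescence increase over three reads.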

A short description of assay [8]: High Content Imaging Cell-Based qHTS for Inhibitors of the mTORC1 Signaling Pathway in MEF (Tsc2-/-, p53-/-) Cells (AID 2666).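 Also: percent of cells scored positive for phospho-rpS6 Ser235/236 immunostaining by imaging.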 To be noted: at 38.3 µM (top of the series). In outline:
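Cells were plated, dosed with compound after 24 hrs, and incubated another 24 hrs at 37 degree Celsius. Fixed cells were immunostained for phospho-rpS6 Ser235/236 and counterstained, and the normalized signal was scored as % active cells against rapamycin and DMSO controls.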

Assay [9] addresses M-phase phosphoprotein 8 (Homo sapiens) (UniProt Q99549). The assay is described as follows: qHTS Validation Assay for Inhibitors for MPP8 Chromodomain Interactions with Methylated Histone Tails (AID 488949).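 Also: AlphaScreen signal from MPP8 chromodomain bound to biotinylated H3K9me3 peptide; top concentration of the series differs between compounds; % is scaled to controls: 0 for no effect and ±100 for the full control effect; nearly all actives have a fitted effect of over 55% in size.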 The note with it: AlphaScreen MPP8 binding to H3K9me3 peptide. In outline:
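AlphaScreen read-out: streptavidin donor and nickel chelate acceptor beads (final 10 ug/mL), 30 min in the dark at RT. Complex of 50 nM MPP8 and 50 nM b-H3(1-18)K9me3 peptide had been exposed to compounds for 30 min beforehand.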

In assay [10] the target is Ubiquitin carboxyl-terminal hydrolase 1 (Homo sapiens) (UniProt O94782). The assay is described as follows: Inhibitors of USP1/UAF1: Pilot qHTS (AID 504865).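 Also: rhodamine fluorescence freed from ubiquitin-rhodamine substrate followed over time; top concentration of the series differs between compounds; % is scaled to controls: 0 for no effect and ±100 for the full control effect; nearly all actives have a fitted effect of over 35% in size.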 The note with it: purified USP1/UAF1, Ub-rhodamine cleavage fluorescence. In outline: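 1nM USP1/UAF1 + cpd, 15 min RT; start w/ Ub-Rho 150nM final; kinetic FL 480/540 nm, 6 reads q60 s. Buffer 50mM HEPES pH 7.8, 0.5mM EDTA, 1mM TCEP, 0.01% Tween-20, 0.1 mg/ml BSA.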

A short description of assay [11]: S16 Schwann cell PMP22 intronic element beta-lactamase assay (AID 624044; calls by dose curve;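 also: 0% = DMSO and -100% = potassium clavulanate positive control; nearly all actives have a fitted effect of over 15% in size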). The note with it: S16 rat Schwann cells, PMP22 element beta-lactamase FRET, 24 h; at 17.1 µM (top of the series). The procedure, abridged: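 Rat S16 Schwann cells with beta-Lac driven by a PMP22 intronic element, compound-treated 24 h at 37 °C. LiveBLAzer FRET B/G read: 460 nm normalized to potassium clavulanate vs DMSO; 535 nm FRET as viability; concentration-effect curves classified.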

Assay [12] has as its target Parathyroid hormone/parathyroid hormone-related peptide receptor (Homo sapiens) (UniProt Q03431). In words: qHTS for PTHR1 Agonists: Optimization Screen against the NCGC LOPAC library (AID 1347079).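 Also: GloSensor cAMP luminescence in HEK-293 GP2 cells expressing human PTHR1 with IBMX; 0% is about no effect.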 The note with it: HEK293 GP2 PTHR1 GloSensor cAMP luminescence, 1 h; at 57.1 µM (top of the series). In outline:
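Agonist readout: GloSensor cAMP luminescence, read after 15 min at room temperature. HEK-293-derived GP2 line carries PTHR1; compounds tested as a titration for 1 hr at 37C in presence of IBMX. M-PTH (1-15) served as control.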

For assay [13], the target named is Cytochrome P450 2D6 (Homo sapiens) (UniProt P10635). The assay is described as follows: Cytochrome P450 family 2 subfamily D member 6 (CYP2D6) small molecule antagonists: luciferase biochemical (cell-free) qHTS assay (AID 1645840; active = well fitted curve in the direction sought with a large enough effect in the repeat runs; an effect the other way counts as inactive or inconclusive; also: potency is read from the fitted curve at half-maximal effect; nearly all actives have a fitted effect of over 55% in size). To be noted: P450-Glo CYP2D6 enzyme, luciferin luminescence, 1 h. The procedure, abridged: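 P450-Glo luminescent screen: recombinant CYP2D6 enzyme–proluciferin substrate mix preincubated with compound 10 min at room temperature, then NADPH regeneration added for 1 h at room temperature. Detection reagent added for 20 min; luciferin light read as relative luminescence units.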

A further assay concerns CRL-7250. In words: qHTS assay to identify novel small-molecules to repurpose for Merkel cell carcinoma treatment (AID 1296009). Also: nearly all actives have a fitted effect of over 60% in size. To be noted: MCC and control cell lines, CellTiter-Glo viability, 72 h; at 44.8 µM (top of the series). In outline:
(§1)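 72 hr, 37 degree celsius; NPC 8-pt / MIPE 11-pt dose response; compound pinned in DMSO; CellTiter-Glo, 10 min RT, luminescence; normalized to no-cell and DMSO controls.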

Another assay concerns NIH3T3. Described as above. The note with it: MCC and control cell lines, CellTiter-Glo viability, 72 h; at 44.8 µM (top of the series). The procedure, abridged: as §1
(In general: ATP-based viability assays read luminescence as a measure of living cells.)

A short description of assay [14]: qHTS profiling of the MIPE4 collection as inhibitors of Plasmodium falciparum (3D7) proliferation (AID 743344; call rule not given here;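 also: scaled between DMSO vehicle wells and 0.29 µM artemisinin as full inhibition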). The note with it: P. falciparum 3D7 in erythrocytes, SYBR Green DNA fluorescence, 72 h; at 28.5 µM (top of the series). The procedure, abridged: (§2)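 Erythrocytes infected with P. falciparum (0.3% parasitemia, 2.5% hematocrit) incubated with compounds 72 h at 37 C, 5% CO2. Lysis with saponin/Triton buffer containing SYBR Green I, overnight at room temperature in the dark; DNA fluorescence (485/535 nm) normalised to 0.29 uM artemisinin and DMSO.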

Assay [15] in a line: qHTS profiling of the MIPE4 collection as inhibitors of Plasmodium falciparum (DD2) proliferation (AID 743345; call rule not given here). To be noted: P. falciparum Dd2 in erythrocytes, SYBR Green DNA, 72 h; at 28.5 µM (top of the series). The procedure, abridged: as §2
Assay [16] in a line: qHTS profiling of the MIPE4 collection as inhibitors of Plasmodium falciparum (DD2) proliferation (Rep 2) (AID 743346; call rule not given here). The note with it: P. falciparum Dd2 in erythrocytes, SYBR Green DNA, 72 h; at 28.5 µM (top of the series). In outline:
as §2

Assay [17] is described as follows: qHTS profiling of the MIPE4 collection as inhibitors of Plasmodium falciparum (HB3) proliferation (AID 743347; call rule not given here;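 also: plate controls were DMSO vehicle wells for no effect and artemisinin wells for full effect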). The note with it: P. falciparum HB3 in erythrocytes, SYBR Green DNA, 72 h; at 28.5 µM (top of the series). The procedure, abridged: as §2
Assay [18] deals with Cytochrome P450 2C9 (Homo sapiens) (UniProt P11712). The assay is described as follows: qHTS Assay for Inhibitors and Substrates of Cytochrome P450 2C9 (AID 883). Also: % is scaled to controls: 0 for no effect and ±100 for the full control effect; nearly all actives have a fitted effect of over 60% in size. The note with it: recombinant CYP2C9, luciferin-H luminescence, 60 min; at 57.1 µM (top of the series) unless noted.
In assay [19] the target is Cytochrome P450 2C19 (Homo sapiens) (UniProt P33261). In words: qHTS Assay for Inhibitors and Substrates of Cytochrome P450 2C19 (AID 899). Also: % is scaled to controls: 0 for no effect and ±100 for the full control effect; nearly all actives have a fitted effect of over 60% in size. The note with it: recombinant CYP2C19, luciferin-H EGE luminescence; series mostly up to 57.1 µM.
The mark [20] stands for this setting: measured here: cell count channel max response.
Where [21] appears, read: measured here: lipid channel max response.

The values that follow come from PubChem BioAssay (NCATS).

For some assays here: What follows is the remainder of the data, with few or none of the hits. Records with an inconclusive call do not appear. Only a part is listed here, and it is no random draw. Active and inactive are the calls of the source. Unless noted, calls follow the shape of the dose curve; as a rule, active = well fitted curve in the direction sought with a large enough effect; inconclusive = small, poorly fitted or top-dose-only effect, or another doubt; inactive = no such curve, though single readings can be large; an effect the other way counts as inactive or inconclusive.

As to `COc1ccc(C[C@H](C)NC[C@@H](O)c2ccc(O)c(NC=O)c2)cc1`, in assay [1], the activity change, negative = inhibition was inactive: 0.739%. The max response in [1] (setting [20]) is 8.8%; in assay [1] (setting [21]) it was 9.21%.

On to `Clc1ccc(N2CCN(Cc3c[nH]c4ncccc34)CC2)cc1`, for which the activity change, negative = inhibition in assay [1] is inactive: -0.632%; in assay [2], inactive: -22.2%. The max response is 50.1% in [1] (setting [20]), 50.2% in assay [1] (setting [21]) and inactive: 5.48% in [3].

Consider `Cc1noc(C)c1-c1ccc2ncnc(NCc3cccnc3)c2c1`, for which the Potency in assay [4] and in assay [5] was active: 891 nM in each case.

`Nc1nc(N)c2nc(-c3ccccc3)c(N)nc2n1`: the activity change, negative = inhibition in assay [6] was inactive: 3270%.

`COc1c(N2CCNC(C)C2)c(F)cc2c(=O)c(C(=O)O)cn(C3CC3)c12` (centres undefined): the activity change, negative = inhibition in assay [7] is inactive: -6.46%.

Take `COc1ccc2cc([C@H](C)C(=O)O)ccc2c1`: the outcome in assay [8] was inactive. For the same compound, the activity change, negative = inhibition in assay [9] (at 57.1 µM (top of the series)) was inactive: -4.63%; in assay [9] (at 114 µM (top of the series)), inactive: -4.51%; in assay [10] (at 54.9 µM (top of the series)) it was inactive: -9.65%; in [10] (at 114 µM (top of the series)) it was inactive: -11.6%. Also, in [11], the ratio activity, negative = inhibition was inactive: -0.649%. In addition, the activation in assay [12] is inactive: 20.3%.

For `C#C[C@]1(O)CC[C@H]2[C@@H]3CCC4=Cc5oncc5C[C@]4(C)[C@H]3CC[C@@]21C`, the Potency in assay [13] is active: 13.8 µM.

On to `O=C(NCc1ccc(S(=O)(=O)c2cc(F)cc(F)c2)cc1)c1ccc2nccn2c1`, for which the Potency in [13] was active: 26.8 µM.

Regarding `Oc1ccc(C2CNCCc3c2cc(O)c(O)c3Cl)cc1` (centres undefined), in the assay on CRL-7250, the outcome was inactive.

Turning to `COc1cccc(OC)c1C(=O)N[C@@H]1C(=O)N2[C@@H]1SC(C)(C)[C@@H]2C(=O)O`, the outcome with NIH3T3 was inactive.

`CN1C(C(=O)Nc2ccccn2)=C(O)c2sccc2S1(=O)=O`: the parasite growth, % of DMSO control in assay [14] is 85.2%. For the same compound, the parasite growth remaining, % of DMSO control (lower = more inhibition) in [15] is 90.6%. The parasite growth, % of control (lower = inhibition) in [16] was 61.5%. This compound returned a growth, % of control in assay [17] of 78.5%.

For `COc1cccc2c1C(=O)c1c(O)c3c(c(O)c1C2=O)C[C@](O)(C(C)=O)C[C@H]3O[C@@H]1C[C@H](N)[C@H](O)[C@H](C)O1`, the activity change, negative = inhibition in assay [18] was inactive: 0.745% [at 25.6 µM]. The Potency result in [19] was “inactive”.
